Experimental data taken from paper PMC2714318.

Target: ASP1 (actinobacteria-specific protein 1; SCO1997) from Streptomyces coelicolor A3(2) (Streptomyces coelicolor A3(2)) (UniProt Q9S2K6)
Assay: SEC; S200 size exclusion column, full length ASP1 at 5 mg/mL, 20 mM Tris pH 7.4, 200 mM KCl; single peak at 13.8 mL, calibrated with a standard curve

“ASP1 (actinobacteria-specific protein 1; SCO1997) from Streptomyces coelicolor A3(2) (from UniProt Q9S2K6 1-312) (natural protein)” was tested. Which stoichiometry N did it give?
The stoichiometry N was 3.
